Measured values: patent US20240245798A1, “NOVEL ANTI-TPBG ANTIBODY AND ANTIBODY-DRUG-CONJUGATES BASED THEREON, THERAPEUTIC METHODS AND USES THEREOF” (Tubulis GmbH, priority 2022, published 2024)

Tested on: recombinant human FcγR (FcγRI, FcγRIIa/CD32, FcγRIIIa/CD16)
Test: Lumit FcγR Binding Immunoassays (FcγRI, FcγRIIa/CD32, FcγRIIIa/CD16)
Conditions: competition with Tracer-LgBiT; n=1
Method: with Fc gamma receptors (FcγRs) was analyzed. FcγR interaction studies were performed using the Lumit™ FcγR Binding Immunoassays (FcγRn, FcγRI, FcγRIIa/CD32 R131/H131 polymorphism, FcγRIIIa/CD16 V158/F158 polymorphism; Promega) based on a competition principle and luciferase detection according to the manufacturer's instructions. […] In the absence of an antibody analyte or if no interaction of the tested antibody with FcγRs takes place, Tracer-LgBiT binds to the FcγR-SmBiT target, resulting in maximum luminescence signal. In the case of successful interaction with FcγRs, the tested antibody/ADC will compete with Tracer-LgBiT for binding to the FcγR target, resulting in a concentration-dependent decrease in the luminescent signal. Luminescence is measured on a microplate reader Infinite M200 Pro (Tecan). Graphs show n=1.
In the absence of an antibody analyte or if no interaction of the tested antibody with FcγRs takes place, Tracer-LgBiT binds to the FcγR-SmBiT target, resulting in maximum luminescence signal. In the case of successful interaction with FcγRs, the tested antibody/ADC will compete with Tracer-LgBiT for binding to the FcγR target, resulting in a concentration-dependent decrease in the luminescent signal. Luminescence was measured on a microplate reader Infinite M200 Pro (Tecan). Graphs show n=1.

## trastuzumab [reference compound]
  Interaction with FcγR: reduced interaction
